Target: human β3 adrenergic receptor (Homo sapiens, UniProt P13945)
Test: Beta-3 agonist in vitro functional assay (cAMP production, LANCE, transfected CHO cells)
Settings: read-out: Human β3 agonist functional activity, Table 3, CHO cells with cloned β3 receptor, ligands titrated 10^-12 M to 10^-5 M

Chains of the proteins cited; added tags and fusions are not shown.
UniProt P13945, whole entry: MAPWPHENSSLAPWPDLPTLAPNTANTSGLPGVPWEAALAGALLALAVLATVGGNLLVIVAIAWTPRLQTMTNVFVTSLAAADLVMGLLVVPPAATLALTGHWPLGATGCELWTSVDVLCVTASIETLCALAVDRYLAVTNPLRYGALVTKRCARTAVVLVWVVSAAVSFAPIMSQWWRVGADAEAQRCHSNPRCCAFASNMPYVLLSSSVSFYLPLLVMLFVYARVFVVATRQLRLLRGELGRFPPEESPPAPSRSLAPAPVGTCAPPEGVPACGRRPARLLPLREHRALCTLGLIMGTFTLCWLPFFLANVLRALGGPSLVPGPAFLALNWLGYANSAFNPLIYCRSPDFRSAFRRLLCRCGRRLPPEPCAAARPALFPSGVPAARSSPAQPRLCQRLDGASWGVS

EC50 [nM]	SMILES
100 to 999	CN(C[C@@H]1CCN(c2ccccc2)C1)C(=O)c1ccc(C[C@@H]2CC[C@H]([C@H](O)c3ccccc3)N2)cc1
10 to 99.9	CCN(C[C@H]1OCCc2ccccc21)C(=O)c1ccc(C[C@@H]2CC[C@H]([C@H](O)c3ccccc3)N2)cc1
1 to 9.9	CN(C[C@@H]1COc2ccccc2O1)C(=O)c1ccc(C[C@@H]2CC[C@H]([C@H](O)c3ccccc3)N2)cc1
100 to 999	CCc1ccccc1OCCCN(C)C(=O)c1ccc(C[C@@H]2CC[C@H]([C@H](O)c3ccccc3)N2)cc1
10 to 99.9	C=CCN(C(=O)c1ccc(C[C@@H]2CC[C@H]([C@H](O)c3ccccc3)N2)cc1)[C@H]1CCS(=O)(=O)C1
10 to 99.9	CC(C)CN(Cc1ccccn1)C(=O)c1ccc(C[C@@H]2CC[C@H]([C@H](O)c3ccccc3)N2)cc1
